# Laboratory results from PubChem BioAssay AID588579 (National Center for Advancing Translational Sciences (NCATS), 2011).
# Amino acid sequences for entries named in this document (tags omitted). A change or cut given only in a name is not applied to a line headed by its entry.
# UniProt Q9UBT6: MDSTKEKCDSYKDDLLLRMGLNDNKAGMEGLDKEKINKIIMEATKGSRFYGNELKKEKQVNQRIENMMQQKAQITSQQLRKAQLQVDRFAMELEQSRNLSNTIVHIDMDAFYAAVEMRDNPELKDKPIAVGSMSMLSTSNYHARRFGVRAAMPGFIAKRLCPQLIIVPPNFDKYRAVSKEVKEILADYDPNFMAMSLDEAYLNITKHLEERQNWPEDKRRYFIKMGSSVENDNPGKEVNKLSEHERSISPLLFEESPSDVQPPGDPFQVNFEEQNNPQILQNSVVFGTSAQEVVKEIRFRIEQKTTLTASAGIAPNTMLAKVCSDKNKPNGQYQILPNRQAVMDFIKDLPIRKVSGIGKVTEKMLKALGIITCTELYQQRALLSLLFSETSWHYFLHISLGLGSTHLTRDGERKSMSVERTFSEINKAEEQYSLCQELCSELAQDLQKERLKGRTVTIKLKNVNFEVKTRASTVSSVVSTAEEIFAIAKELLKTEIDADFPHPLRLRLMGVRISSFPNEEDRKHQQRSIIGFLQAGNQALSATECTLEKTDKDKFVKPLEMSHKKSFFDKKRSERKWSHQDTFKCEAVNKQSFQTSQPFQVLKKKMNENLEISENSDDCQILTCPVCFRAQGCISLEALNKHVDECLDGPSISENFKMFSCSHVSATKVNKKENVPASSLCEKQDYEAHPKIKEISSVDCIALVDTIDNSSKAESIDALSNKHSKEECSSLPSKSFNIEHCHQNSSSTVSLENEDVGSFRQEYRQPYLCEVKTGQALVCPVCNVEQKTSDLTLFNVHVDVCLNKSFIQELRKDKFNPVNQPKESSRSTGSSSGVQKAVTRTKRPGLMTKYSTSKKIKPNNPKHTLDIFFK
# Several values for one entry are separate records, joined by “and”; a condition that tells them apart may be missing. Equal values may be shown once. The entries are a selection whose mix differs from that of the whole data set. Results filed as inconclusive are left out. Activity calls are given as the source filed them. Calls come from the whole dose curve; as a rule, active = well fitted inhibition curve with a large enough effect; inconclusive = small, poorly fitted or top-dose-only effect, or another doubt; inactive = no such curve, though single readings can be large or run the other way.
# Target: DNA polymerase kappa (Homo sapiens) (UniProt Q9UBT6)
# Experiment: qHTS for Inhibitors of Polymerase Kappa
# Conditions: purified Pol kappa, fluorescent DNA synthesis assay, 10 min
# Protocol: The processing and repair of DNA interstrand crosslinks (ICL) in eukaryotic cells are extremely complex, potentially involving multiple DNA repair and damage tolerance pathways, including homologous recombination, nucleotide excision repair, translesion synthesis (TLS), and cell cycle checkpoints.
# To that end, in a collaboration between the Oregon Health & Science University and the NIH Chemical Genomics Center a 1536-well high-throughput screen was developed. This fluorescent screen was assayed against the NIH Molecular Libraries Small Molecule Repository (MLSMR) to discover inhibitors of Pol Kappa.
# NIH Chemical Genomics Center [NCGC]
# NIH Molecular Libraries Probe Centers Network [MLPCN]
# Assay Submitter (PI): Stephen Lloyd, Oregon Health & Science University
# Three microliters of reagents (buffer in column 3 and 4 as negative control and 10 nM Pol kappa in columns 1, 2, and 5-48) were dispensed into a 1536-well black solid-bottom plate. Compounds (23 nL) were transferred via Kalypsys pin tool equipped with 1536-pin array. The plates were then incubated for 15 min at room temperature, and 1 uL substrate (50 nM final concentration) were then added to start the reaction and kinetically read twice at 0 min and 10 min on the Viewlux reader
# % is set by controls: 0 for no effect and ±100 for the full control effect.
smiles,measurement,setting,value
CCOC(=O)Nc1ccc([As](=O)(O)O)c(O)c1,"activity, negative = inhibition",at 107 µM (top of the series),inactive: 9.75%
CC1CCNP(=O)(N(CCCl)CCCl)O1 (centres undefined),"activity, negative = inhibition",at 107 µM (top of the series),inactive: -3.55%
Cc1cc(SC(NC(=O)c2ccccc2)C(Cl)(Cl)Cl)nc(C(C)C)n1 (centres undefined),"activity, negative = inhibition",at 107 µM (top of the series),inactive: -17.7%
CCCCOc1ccc(C(=O)NCC2(N3CCCCC3)CCCCC2)cc1OC,"activity, negative = inhibition",at 107 µM (top of the series),inactive: -24.6%
CCOC(=O)Nc1cccc([As](=O)(O)O)c1,"activity, negative = inhibition",at 107 µM (top of the series),inactive: -7.74%
Cc1cc(SC(NC=O)C(Cl)(Cl)Cl)ncn1 (centres undefined),"activity, negative = inhibition",at 107 µM (top of the series),inactive: -14.4%
O=P(Nc1ccccn1)(c1cccc2ccccc12)c1cccc2ccccc12,"activity, negative = inhibition",at 107 µM (top of the series),inactive: -16.2%
O=[N+]([O-])c1ccc(Nc2ccc(Oc3ccc([N+](=O)[O-])cc3[N+](=O)[O-])cc2)c([N+](=O)[O-])c1,"activity, negative = inhibition",at 107 µM (top of the series),inactive: -10.8%
COP1(=S)c2c(C)nn(CCC#N)c2N=C(c2ccc(F)cc2)N1C (centres undefined),"activity, negative = inhibition",at 60.1 µM (top of the series),inactive: -0.182%
O=C(Nc1ccncc1[N+](=O)[O-])c1ccc([N+](=O)[O-])cc1[N+](=O)[O-],"activity, negative = inhibition",at 107 µM (top of the series),inactive: -5.1%
O=C(COc1ccccc1)OC1CN2CCC1CC2 (centres undefined),"activity, negative = inhibition",at 107 µM (top of the series),inactive: -3.68%
O=C(OC1CN2CCC1CC2)c1cccc([N+](=O)[O-])c1 (centres undefined),"activity, negative = inhibition",at 107 µM (top of the series),inactive: 1.89%
CCOC(=O)c1ccc(NC(=O)C(C)(CCl)SC)cc1 (centres undefined),"activity, negative = inhibition",at 107 µM (top of the series),inactive: -7.3%
CCC(C)N(CC(C)C)C(=S)SC(NC(C)=O)C(Cl)(Cl)Cl (centres undefined),"activity, negative = inhibition",at 107 µM (top of the series),inactive: -0.407%
CCOP(=O)(Nc1cccc2cccnc12)OCC,"activity, negative = inhibition",at 107 µM (top of the series),inactive: -7.55%
Cc1c2c(nc3ccccc13)SC(C(Cl)Cl)C2 (centres undefined),"activity, negative = inhibition",at 107 µM (top of the series),inactive: -20.3%
Cc1cc(=O)[nH]c(N[N+](=O)[O-])n1,"activity, negative = inhibition",at 107 µM (top of the series),inactive: -12.3%
O=C(OC1CN2CCC1CC2)C12CC3CC(CC(C3)C1)C2 (centres undefined),"activity, negative = inhibition",at 107 µM (top of the series),inactive: -0.63%
O=P1(N(CCCl)CCCl)OCCCN1CCCl (centres undefined),"activity, negative = inhibition",at 107 µM (top of the series),inactive: -23.8%
O=P1(N(CCCl)CCCl)Nc2ccccc2N1,"activity, negative = inhibition",at 107 µM (top of the series),inactive: -12.1%
COc1cc(I)ccc1[As](=O)(O)O,"activity, negative = inhibition",at 107 µM (top of the series),inactive: -17.8%
COc1ccc2nc(NP(=O)(c3ccccc3)c3ccccc3)sc2c1,"activity, negative = inhibition",at 107 µM (top of the series),inactive: -0.861%
O=[N+]([O-])c1cc(Oc2ccc([N+](=O)[O-])cc2C(F)(F)F)cc([N+](=O)[O-])c1,"activity, negative = inhibition",at 107 µM (top of the series),inactive: -2.46%
COc1ccc(N/C(=N/P(=O)(N2CCOCC2)N2CCOCC2)N2CCOCC2)cc1,"activity, negative = inhibition",at 107 µM (top of the series),inactive: -1.4%
COc1cc(C(=O)NCC2(N3CCOCC3)CCCCC2)ccc1OCC(C)C,"activity, negative = inhibition",at 107 µM (top of the series),inactive: -20.5%
C[As](=O)(O)c1cccc(C(=O)O)c1,"activity, negative = inhibition",at 107 µM (top of the series),inactive: -18.5%
O=[As](O)(c1ccc(O)cc1)c1ccccc1O,"activity, negative = inhibition",at 107 µM (top of the series),inactive: -3.01%
Cc1ccc(OP(=O)(Nc2ccc([N+](=O)[O-])cn2)Oc2ccc(C)cc2)cc1,"activity, negative = inhibition",at 107 µM (top of the series),inactive: 3.42%
Cc1ccc2nc3c(c(C)c2c1)CC(C(Cl)Cl)S3 (centres undefined),"activity, negative = inhibition",at 107 µM (top of the series),inactive: -14.1%
O=Cc1ccc(NCCCl)cc1,"activity, negative = inhibition",at 107 µM (top of the series),inactive: -4.23%
ClCCSc1nnc(-c2cccnc2)o1,"activity, negative = inhibition",at 107 µM (top of the series),inactive: 0.562%
CC(C)c1ccc(OP(=O)(Nc2ccccn2)Oc2ccccc2F)cc1 (centres undefined),"activity, negative = inhibition",at 107 µM (top of the series),inactive: 2.47%
COC(=O)C1(C)COP(=O)(N2CCCCCC2)OC1 (centres undefined),"activity, negative = inhibition",at 107 µM (top of the series),inactive: -6.77%
O=[N+]([O-])c1cc([N+](=O)[O-])c(-c2ccn[nH]2)s1,"activity, negative = inhibition",at 107 µM (top of the series),inactive: -50.7%
O=C(OC1CN2CCC1CC2)c1cccc2[nH]cnc12 (centres undefined),"activity, negative = inhibition",at 107 µM (top of the series),inactive: 2.35%
CCN(CC)C(=S)SC(NC=O)C(Cl)(Cl)Cl (centres undefined),"activity, negative = inhibition",at 107 µM (top of the series),inactive: -3.21%
CC(C)NC(=O)NP(=O)(Oc1ccccc1)Oc1ccccc1,"activity, negative = inhibition",at 107 µM (top of the series),inactive: -7.86%
O=P(Nc1nc2ccc(Cl)cc2s1)(c1ccccc1)c1ccccc1,"activity, negative = inhibition",at 107 µM (top of the series),inactive: -2.9%
CCCC1OP(N)(=O)OCC1CC (centres undefined),"activity, negative = inhibition",at 107 µM (top of the series),inactive: 3.27%
O=C(O)c1ccccc1[As](=O)(O)O,"activity, negative = inhibition",at 107 µM (top of the series),inactive: -6.42%
CC(=O)Nc1ccc([As](=O)(O)O)cc1,"activity, negative = inhibition",at 107 µM (top of the series),inactive: 3.37%
CN(C(=O)Cc1ccc(Cl)c(Cl)c1)[C@H]1CCCC[C@@H]1N1CCCC1,"activity, negative = inhibition",at 19.4 µM (top of the series),inactive: 0.113% [middle of 7 runs]
same,"activity, negative = inhibition",at 60.1 µM (top of the series),inactive: -11.4% and inactive: 7.08% and inactive: 2.68%
same,"activity, negative = inhibition",at 107 µM (top of the series),inactive: -7.95%
Cc1ccc(NP(=O)(Oc2ccccc2F)Oc2ccccc2F)nc1,"activity, negative = inhibition",at 107 µM (top of the series),inactive: -2.8%
CCOP(=O)(Nc1ccccc1)OCC,"activity, negative = inhibition",at 107 µM (top of the series),inactive: 6.6%
Cc1cc(SC(NC(=O)c2ccc(F)cc2)C(Cl)(Cl)Cl)ncn1 (centres undefined),"activity, negative = inhibition",at 107 µM (top of the series),inactive: -8.21%
Nc1cccc2ccc([As](=O)(O)O)cc12,"activity, negative = inhibition",at 107 µM (top of the series),inactive: 10.5%
Cc1ccc(N/C(=N/P(=O)(N2CCOCC2)N2CCOCC2)N2CCOCC2)cc1,"activity, negative = inhibition",at 107 µM (top of the series),inactive: 2.94%
CN(C(=O)Cc1ccc(Cl)c(Cl)c1)[C@H]1CCCC[C@H]1N1CCCC1,"activity, negative = inhibition",at 107 µM (top of the series),inactive: -27.5%
O=[N+]([O-])c1cc2c(cc1[N+](=O)[O-])OCO2,"activity, negative = inhibition",at 107 µM (top of the series),inactive: -5.5%
NC(=O)c1cc([N+](=O)[O-])cc([N+](=O)[O-])c1N,"activity, negative = inhibition",at 107 µM (top of the series),inactive: 0.716%
Clc1ccc(Cl)c(NC2=NCC(CBr)S2)c1 (centres undefined),"activity, negative = inhibition",at 107 µM (top of the series),inactive: 1.35%
CN1CCCC(OC(=O)C(c2ccccc2)c2ccccc2)C1 (centres undefined),"activity, negative = inhibition",at 107 µM (top of the series),inactive: 6.73%
